Assay results reported in PMC11292843 (ACS Omega, 2024).

Target: T1, hTCPTP (Homo sapiens, UniProt P17706)
T1 construct: His tag (vector pET-28a(+)-TEV, with TEV site); made in house; host or cells: E. coli BL21 (DE3)
T1 sequence (P17706 1-415): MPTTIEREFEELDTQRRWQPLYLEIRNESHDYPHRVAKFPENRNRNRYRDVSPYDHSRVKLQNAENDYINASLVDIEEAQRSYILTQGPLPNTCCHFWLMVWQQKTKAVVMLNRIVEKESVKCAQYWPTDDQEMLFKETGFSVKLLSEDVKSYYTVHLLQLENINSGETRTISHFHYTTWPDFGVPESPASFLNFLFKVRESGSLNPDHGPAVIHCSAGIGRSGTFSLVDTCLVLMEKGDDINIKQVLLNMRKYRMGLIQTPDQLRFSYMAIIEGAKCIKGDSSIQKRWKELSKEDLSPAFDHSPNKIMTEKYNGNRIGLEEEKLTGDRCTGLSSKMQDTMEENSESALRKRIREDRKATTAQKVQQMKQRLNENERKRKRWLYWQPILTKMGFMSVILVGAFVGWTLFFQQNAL
Experiment: Selectivity assay against TCPTP
Type: biochemical
Settings: hPTP1B1–400 vs hTCPTP
Method: A spectrocolorimetric method previously described[3] was employed to test the inhibitory effect of the new compounds against PTP1B. […] Enzyme solutions containing pNPP and inhibitors were incubated at 37 °C for 15 min. […] The percentage of inhibition was plotted as a function of the inhibitor concentrations.
Similarly to the IC50, the assays to determine the selectivity were carried out in the same experimental conditions using hPTP1B1–400 and hTCPTP.
The expression vector pET-28a(+)-TEV was obtained from Invitrogen (Waltham, MA, USA). E. coli strain DH5α and BL21 (DE3) were purchased from Invitrogen (Waltham, MA, USA). The gene PTPN2 was subcloned into the expression vector pET-28a (+)-TEV, using the NDEI and BAMHI cloning sites. The construction pET-28A(+)-TEV–PTPN2 was transformed into E. coli strain BL21 (DE3). Transformed E. coli cells were grown in LB media containing kanamycin ([…]) at 37 °C for 6 h with continuous agitation (250 rpm). Once the cultures reached an A600 of 0.6 (about 6 h), protein expression was induced with 1 mM IPTG at 37 °C, 250 rpm for 8 h. After centrifuge (4500 rpm, 15 min, 4 °C), the grown and IPTG-induced cultures and bacterial pellet were resuspended in Tris buffer (pH 6.8) and lysed by sonication (10 cycles, intervals of 30 s) in an ice–water bath with an ultrasonic processor (Cole-Parmer, Vernon Hills, IL, USA). […]

selectivity (PTP1B over TCPTP): No
SMILES: O=C(O)C(=O)Nc1sc2c(c1C(=O)O)CCNC2 [TCS401, reference compound]
